This passage reports ddG results from paper PMC6728138, “Quantitative mapping of protein-peptide affinity landscapes using spectrally encoded beads” (eLife, 2019).

The assay concerns the target calcineurin (CN) heterodimer, wild type: N-terminally 6-His-tagged human calcineurin A truncated at residue 400 with the calcineurin B subunit, Q08209;P63098. The experiment in a line: MRBLE-pep (peptides on spectrally encoded beads). The conditions noted are these: parent: est. 0.0 kcal/mol; read off a plot.

With “PKIVIT peptide (PVIVIT scaffold with V2K) V4I”, the ddG is -0.15 kcal/mol.

“PKIVIT peptide (PVIVIT scaffold with V2K) V4R”: the ddG came out at 0.15 kcal/mol.
